{"source": "ChEMBL document CHEMBL5233266", "about": "“β-Carboline as a Privileged Scaffold for Multitarget Strategies in Alzheimer's Disease Therapy” (J Med Chem, 2021)", "key": {"[1]": {"biological_target": "T1, Gamma-aminobutyric acid receptor subunit alpha-3 (Homo sapiens, UniProt P34903)", "T1 sequence (P34903 whole entry)": "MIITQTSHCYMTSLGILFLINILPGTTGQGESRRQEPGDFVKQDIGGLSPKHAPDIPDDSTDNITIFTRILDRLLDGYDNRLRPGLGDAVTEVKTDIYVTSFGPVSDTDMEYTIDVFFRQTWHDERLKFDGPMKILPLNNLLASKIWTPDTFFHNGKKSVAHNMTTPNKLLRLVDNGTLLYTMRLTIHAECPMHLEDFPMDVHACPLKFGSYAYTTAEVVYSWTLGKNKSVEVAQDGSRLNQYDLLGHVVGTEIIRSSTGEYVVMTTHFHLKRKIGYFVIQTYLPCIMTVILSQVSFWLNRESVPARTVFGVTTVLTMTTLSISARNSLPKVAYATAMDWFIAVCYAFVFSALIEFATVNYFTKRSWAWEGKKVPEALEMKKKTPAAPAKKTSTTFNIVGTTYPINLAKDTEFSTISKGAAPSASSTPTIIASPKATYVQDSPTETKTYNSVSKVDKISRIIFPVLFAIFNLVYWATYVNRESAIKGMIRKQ", "assay": "Binding affinity to human recombinant GABAA alpha3 receptor assessed as inhibition constant incubated for 1 hrs by liquid scintillation counting analysis"}, "[2]": {"biological_target": "Gamma-aminobutyric acid receptor subunit alpha-6 (Homo sapiens, UniProt Q16445)", "assay": "Binding affinity to human recombinant GABAA alpha6 receptor assessed as inhibition constant incubated for 1 hrs by liquid scintillation counting analysis"}, "[3]": {"biological_target": "GABA-A receptor; anion channel", "assay": "Displacement of [3H]flunitrazepam from GABAA (unknown origin ) receptor by radioligand binding assay", "assay_type": "protein-complex assay, Homo sapiens"}, "[4]": {"biological_target": "T2, Gamma-aminobutyric acid receptor subunit alpha-5 (Homo sapiens, UniProt P31644)", "T2 sequence (P31644 whole entry)": "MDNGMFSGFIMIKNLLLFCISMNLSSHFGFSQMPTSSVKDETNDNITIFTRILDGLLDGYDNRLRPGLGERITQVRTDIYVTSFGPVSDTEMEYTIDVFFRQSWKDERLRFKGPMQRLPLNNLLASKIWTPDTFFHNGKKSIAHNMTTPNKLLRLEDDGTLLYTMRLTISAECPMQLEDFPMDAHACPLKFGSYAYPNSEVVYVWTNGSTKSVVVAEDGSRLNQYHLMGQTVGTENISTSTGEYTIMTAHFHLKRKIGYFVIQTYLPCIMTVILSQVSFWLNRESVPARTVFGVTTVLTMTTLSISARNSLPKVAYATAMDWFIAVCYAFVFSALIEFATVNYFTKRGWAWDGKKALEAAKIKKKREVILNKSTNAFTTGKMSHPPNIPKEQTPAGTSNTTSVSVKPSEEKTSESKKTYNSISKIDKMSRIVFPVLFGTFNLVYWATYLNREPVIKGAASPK", "assay": "Binding affinity to human recombinant GABAA alpha5 receptor assessed as inhibition constant incubated for 1 hrs by liquid scintillation counting analysis"}, "[5]": {"biological_target": "Gamma-aminobutyric acid receptor subunit alpha-4 (Homo sapiens, UniProt P48169)", "assay": "Binding affinity to human recombinant GABAA alpha4 receptor assessed as inhibition constant incubated for 1 hrs by liquid scintillation counting analysis"}, "[6]": {"biological_target": "T3, Gamma-aminobutyric acid receptor subunit alpha-2 (Homo sapiens, UniProt P47869)", "T3 sequence (P47869 whole entry)": "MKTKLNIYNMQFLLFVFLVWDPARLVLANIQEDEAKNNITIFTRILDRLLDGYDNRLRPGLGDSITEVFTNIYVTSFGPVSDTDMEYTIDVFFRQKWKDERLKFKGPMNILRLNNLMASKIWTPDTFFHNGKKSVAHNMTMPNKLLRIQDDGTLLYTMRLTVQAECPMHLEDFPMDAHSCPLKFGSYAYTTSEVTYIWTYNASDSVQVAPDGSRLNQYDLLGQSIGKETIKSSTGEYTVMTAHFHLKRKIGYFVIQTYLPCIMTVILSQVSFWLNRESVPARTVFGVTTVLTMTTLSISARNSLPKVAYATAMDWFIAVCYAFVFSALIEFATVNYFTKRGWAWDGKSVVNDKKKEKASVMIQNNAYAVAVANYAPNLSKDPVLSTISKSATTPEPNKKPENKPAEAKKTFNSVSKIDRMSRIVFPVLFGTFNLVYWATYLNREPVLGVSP", "assay": "Binding affinity to human recombinant GABAA alpha2 receptor assessed as inhibition constant incubated for 1 hrs by liquid scintillation counting analysis"}}}
{"smiles": "CCOC(=O)c1cc2c(cn1)[nH]c1ccccc12", "values": [{"measurement": "Ki", "setting": "[1]", "result": 0.006, "unit": "µM"}, {"measurement": "Ki", "setting": "[2]", "result": 2.7, "unit": "µM"}, {"measurement": "IC50", "setting": "[3]", "result": 0.001, "unit": "µM"}, {"measurement": "Ki", "setting": "[4]", "result": 0.027, "unit": "µM"}, {"measurement": "Ki", "setting": "[5]", "result": 1, "unit": "µM"}, {"measurement": "Ki", "setting": "[6]", "result": 0.005, "unit": "µM"}]}
